US7795261B2, “Substituted 1-piperidin-4-yl-4-pyrrolidin-3-yl-piperazine derivatives and their use as neurokinin antagonists” (Janssen Pharmaceutica NV, priority 2002, dated 2010)

Chains of the proteins cited; added tags and fusions are not shown.
UniProt P25103, whole entry: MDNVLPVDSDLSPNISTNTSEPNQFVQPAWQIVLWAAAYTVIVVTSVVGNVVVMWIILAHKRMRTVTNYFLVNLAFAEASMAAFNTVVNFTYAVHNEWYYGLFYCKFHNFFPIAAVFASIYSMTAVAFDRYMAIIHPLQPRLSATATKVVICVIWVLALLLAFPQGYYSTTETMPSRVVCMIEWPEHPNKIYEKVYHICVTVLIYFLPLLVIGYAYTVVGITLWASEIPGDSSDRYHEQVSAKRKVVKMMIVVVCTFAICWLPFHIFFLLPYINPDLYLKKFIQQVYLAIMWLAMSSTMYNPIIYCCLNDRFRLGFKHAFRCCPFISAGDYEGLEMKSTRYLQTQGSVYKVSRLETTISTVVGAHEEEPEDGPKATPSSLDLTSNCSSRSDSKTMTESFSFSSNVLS
UniProt P21452, whole entry: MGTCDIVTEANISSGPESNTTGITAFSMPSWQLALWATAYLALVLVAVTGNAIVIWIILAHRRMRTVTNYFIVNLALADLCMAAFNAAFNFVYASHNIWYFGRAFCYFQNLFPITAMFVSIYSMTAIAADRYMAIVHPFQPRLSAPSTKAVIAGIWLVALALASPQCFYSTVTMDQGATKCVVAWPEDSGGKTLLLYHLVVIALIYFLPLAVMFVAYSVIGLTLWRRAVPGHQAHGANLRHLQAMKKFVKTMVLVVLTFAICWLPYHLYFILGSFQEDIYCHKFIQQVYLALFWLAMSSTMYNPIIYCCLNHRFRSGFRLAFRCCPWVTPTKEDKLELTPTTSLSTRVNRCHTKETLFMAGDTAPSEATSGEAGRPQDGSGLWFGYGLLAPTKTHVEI
UniProt P29371, whole entry: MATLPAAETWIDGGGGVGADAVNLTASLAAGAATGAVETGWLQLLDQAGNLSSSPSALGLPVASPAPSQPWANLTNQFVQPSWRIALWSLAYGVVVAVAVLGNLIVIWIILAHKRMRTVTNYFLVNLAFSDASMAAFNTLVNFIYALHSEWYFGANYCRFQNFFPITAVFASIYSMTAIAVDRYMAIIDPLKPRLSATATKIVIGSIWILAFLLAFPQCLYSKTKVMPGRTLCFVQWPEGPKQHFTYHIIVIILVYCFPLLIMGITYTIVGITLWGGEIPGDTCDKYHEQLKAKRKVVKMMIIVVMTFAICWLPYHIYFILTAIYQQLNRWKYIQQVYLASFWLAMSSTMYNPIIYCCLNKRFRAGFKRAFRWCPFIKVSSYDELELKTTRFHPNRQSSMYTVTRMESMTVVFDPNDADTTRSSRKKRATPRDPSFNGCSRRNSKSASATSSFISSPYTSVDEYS

Legend:
NK1 = NK1 (Homo sapiens, UniProt P25103); assay: Signal transduction (ST), intracellular Ca++ (FLIPR), NK1 antagonistic activity
NK2 = NK2 (Homo sapiens, UniProt P21452); assay: Signal transduction (ST), intracellular Ca++ (FLIPR), NK2
Procedure: [The procedure below names another target; the source lists this target under the same test.] This test evaluates in vitro functional NK1 antagonistic activity. For the measurements of intracellular Ca^++ concentrations the cells were grown on 96-well (black wall/transparent bottom) plates from Costar for 2 days until they reached confluence. The cells were loaded with 2 μM Fluo3 in DMEM containing 0.1% BSA and 2.5 mM probenecid for 1 h at 37° C. They were washed 3× with a Krebs buffer (140 mM NaCl, 1 mM MgCl2×6H2O, 5 mM KCl, 10 mM glucose, 5 mM HEPES; 1.25 mM CaCl2; pH 7.4) containing 2.5 mM probenecid and 0.1% BSA (Ca^++-buffer). The cells were preincubated with a concentration range of antagonists for 20 min at RT and Ca^++-signals after addition of the agonists were measured in a Fluorescence Image Plate Reader (FLIPR from Molecular Devices, Crawley, England). The peak of the Ca^++-transient was considered as the relevant signal and the mean values of corresponding wells were analysed as described below.
The sigmoidal dose response curves were analysed by computerised curve-fitting, using the GraphPad Program. The EC50-value of a compound is the effective dose showing 50% of maximal effect. For mean curves the response to the agonist with the highest potency was normalised to 100%. For antagonist responses the IC50-value was calculated using non-linear regression.
The last columns indicates—without being limited therefore—for which the compounds might be most suitable. Of course, since for some neurokinin receptors no data was determined, it is obvious that these compounds might be attributed to another suitable use.

NK3 = NK3 (Homo sapiens, UniProt P29371); assay: Signal transduction (ST), intracellular Ca++ (FLIPR), NK3

Structure (SMILES)	pIC50 NK1 (NK1)	pIC50 NK2 (NK2)	pIC50 NK3 (NK3)
O=C(C1CCOC1)N1CCC(N2CCN([C@H]3CCN(C(=O)c4cc(C(F)(F)F)cc(C(F)(F)F)c4)[C@H](Cc4ccc(Cl)c(Cl)c4)C3)CC2)C1 (some centres unmarked)	8.4	5.9	6.4
CC(C)(C)OC(=O)N1CC[C@H](N2CCN([C@H]3CCN(C(=O)c4cc(C(F)(F)F)cc(C(F)(F)F)c4)[C@H](Cc4ccc(Cl)c(Cl)c4)C3)CC2)C1	7.4	5.5	5.5
CC(C)(C)C(=O)N1CC[C@@H](N2CCN([C@H]3CCN(C(=O)c4cc(C(F)(F)F)cc(C(F)(F)F)c4)[C@H](Cc4ccccc4)C3)CC2)C1	8.5	5.8	5.8
CC(C)(C)C(=O)N1CC[C@H](N2CCN([C@H]3CCN(C(=O)c4cc(C(F)(F)F)cc(C(F)(F)F)c4)[C@H](Cc4ccccc4)C3)CC2)C1	7.9	5.5	6.0
O=C(c1cc(C(F)(F)F)cc(C(F)(F)F)c1)N1CC[C@H](N2CCN([C@H]3CCNC3)CC2)C[C@H]1Cc1ccc(Cl)c(Cl)c1	8.0	5.6	
